The text below walks through data of patent US20230382911A1 (Hoffmann-La Roche Inc., priority 2021, published 2023).

Amino acid sequences for entries named in this document (tags omitted).
UniProt P31153, whole entry: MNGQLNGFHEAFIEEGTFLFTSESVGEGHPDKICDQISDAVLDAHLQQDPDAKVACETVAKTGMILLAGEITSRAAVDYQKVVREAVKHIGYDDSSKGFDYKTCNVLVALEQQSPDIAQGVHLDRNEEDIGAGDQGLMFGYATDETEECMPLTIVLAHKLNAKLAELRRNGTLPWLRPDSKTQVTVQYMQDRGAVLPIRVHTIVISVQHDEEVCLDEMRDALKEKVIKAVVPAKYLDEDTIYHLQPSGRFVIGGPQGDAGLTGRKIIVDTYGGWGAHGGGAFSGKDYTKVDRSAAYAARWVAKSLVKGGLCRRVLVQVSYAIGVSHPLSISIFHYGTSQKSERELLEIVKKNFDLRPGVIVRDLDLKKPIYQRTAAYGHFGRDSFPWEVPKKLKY

The assay has as its target Recombinant human Mat2a (Homo sapiens (Human), UniProt P31153). In words: Determination of Mat2A activity: 384 well format absorbance-based Mat2A inhibition assay. As to conditions: read-out: MAT2A IC50; 12.5 nM Mat2A, 100 μM ATP and Methionine, 2% DMSO, 120 minutes at RT, Biomol Green, absorbance at 635 nm. As to the method: Determination of Mat2A Activity
Measurement of Mat2A inhibition is performed in 384 well format absorbance-based assay.
Recombinant human Mat2a (12.5 nM) and serial diluted compounds in DMSO (range of concentrations from 10 μM to […]) or controls (DMSO) are incubated for 15 minutes at room temperature (RT) in assay buffer containing 50 mM HEPES pH 7.5, 50 mM KCl, 50 mM MgCl2, 0.01% Tween 20 and 10 mM DTT. The reaction is initiated by the addition of the combined substrates ATP and Methionine, each at a final concentration of 100 μM. Final assay condition are 12.5 nM Mat2A, 100 μM ATP and Methionine Substrates and 2% DMSO. After 120 minutes of incubation at RT, the reaction is stopped by the addition of Biomol Green. The absorbance signal is measured at λ=635 nm with a multiplate reader (BMG Pherastar reader or equivalent) after 30 min of equilibration at RT.

In the case of `C[C@H]1CCO[C@H]1C(=O)n1nc(N)c2ccc(C3CC3)nc21` (relative stereo), the IC50 came out at 35 nM.
